Measured values from PubChem BioAssay AID463210 (The Scripps Research Institute Molecular Screening Center, 2010).
The list shows a part of the results, in another mix than the full data. Some salts or complexes appear as unconnected parts, following the source record. Active and inactive are the calls of the source.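 How the source made its calls: active means percent activation above the screen-wide mean plus 3 SD (cut at about 25% in these data); inactive means the rest.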

Chains of the proteins cited; added tags and fusions are not shown.
UniProt P55210, whole entry D23A/D198A/D206A: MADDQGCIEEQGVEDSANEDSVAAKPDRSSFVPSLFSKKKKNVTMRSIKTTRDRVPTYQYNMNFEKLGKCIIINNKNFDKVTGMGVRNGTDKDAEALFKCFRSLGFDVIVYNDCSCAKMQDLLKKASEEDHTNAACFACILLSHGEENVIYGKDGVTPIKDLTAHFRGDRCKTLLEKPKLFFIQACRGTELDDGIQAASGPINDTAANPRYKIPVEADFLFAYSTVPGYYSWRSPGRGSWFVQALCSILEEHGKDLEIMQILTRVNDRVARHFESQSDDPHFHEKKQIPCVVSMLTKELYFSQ

target: Caspase-7 (Homo sapiens) (UniProt P55210); assay: activation of procaspase-7 enzyme – biochemical, absorbance, HTS, human, counter-screen for procaspase-3 activator project, primary screen (AID 463210); settings: recombinant procaspase-7, Ac-DEVD-pNA absorbance 405 nm; at 8.5 µM; stronger effect = higher value; D23A/D198A/D206A triple mutant, cannot self-cleave; scale: DMSO 0, 5 µM enzyme 100

SMILES | activation
COc1ccccc1OP(C)(=O)Nc1ccc(Br)cc1 (stereo unspecified) | inactive: 2.53%
COc1ccc(OP(C)(=O)Nc2ccccn2)cc1 (stereo unspecified) | inactive: 8.63%
Cc1c(NP(C)(=O)Oc2ccc(C(C)C)cc2)c(=O)n(-c2ccccc2)n1C (stereo unspecified) | inactive: -1.01%
O=[N+]([O-])c1cc([N+](=O)[O-])c(Nc2ccccn2)c([N+](=O)[O-])c1 | inactive: 4.64%
CCc1ccc(OP(C)(=O)O)cc1 | inactive: -4.19%
CP(=O)(Nc1ccccn1)Oc1ccccc1 (stereo unspecified) | inactive: 4.08%
COc1ccccc1OP(C)(=O)Nc1ccc(C)cc1C (stereo unspecified) | inactive: 12.6%
Cc1cc(C)cc(OP(C)(=O)Nc2cccc(C(F)(F)F)c2)c1 (stereo unspecified) | inactive: 7.09%
COc1ccc(OP(C)(=O)Nc2ccccc2Br)cc1 (stereo unspecified) | inactive: 2.09%
COc1ccccc1OP(C)(=O)Nc1ccc(C)c(C)c1 (stereo unspecified) | inactive: 7.43%
Cc1nc2ccc3ccccc3c2o1.O=[N+]([O-])c1cc([N+](=O)[O-])c(O)c([N+](=O)[O-])c1 | inactive: 1.53%
CP(=O)(Nc1ccc(Cl)cc1Cl)Oc1ccccc1 (stereo unspecified) | inactive: -1.46%
CP(=O)(OCCOc1ccccc1)OCCOc1ccccc1 | inactive: -0.48%
Nc1ccc2c(ccc3cccnc32)n1.O=[N+]([O-])c1cc([N+](=O)[O-])c(O)c([N+](=O)[O-])c1 | inactive: -4.23%
CP(=O)(OC12CC3CC(CC(C3)C1)C2)OC12CC3CC(CC(C3)C1)C2 | inactive: 2.23%
CCOC(=O)c1ccc(NP(C)(=O)Oc2ccc(Cl)cc2)cc1 (stereo unspecified) | inactive: 4.98%
CCN(CC)CC(O)COC(=O)C(O)(c1ccccc1)C1CCCCC1 (stereo unspecified) | inactive: 18.8%
COc1ccc(OP(C)(=O)Nc2ccc(Br)cc2)cc1 (stereo unspecified) | inactive: -0.59%
CP(=O)(Oc1ccccc1)N1CCOC1=O (stereo unspecified) | inactive: -1.29%
CCc1ccc(OP(C)(=O)Nc2cccnc2)cc1 (stereo unspecified) | inactive: 12.9%
COc1ccccc1OP(C)(=O)Nc1c(C)n(C)n(-c2ccccc2)c1=O (stereo unspecified) | inactive: -8.98%
O=C(OCCCN1CCCC1)C(O)(c1ccccc1)C1CCCCC1 (stereo unspecified) | inactive: 3.25%

SMILES | activation
CP(=O)(Nc1ccc(Cl)cc1)Oc1ccc(F)cc1 (stereo unspecified) | inactive: 5.33%
COc1ccccc1OP(C)(=O)Nc1ccccc1Br (stereo unspecified) | inactive: -4.26%
CC(C)(C)c1ccc(OP(C)(=O)O)cc1 | inactive: 3.04%
CN(C)C(=O)c1c([N+](=O)[O-])cc([N+](=O)[O-])cc1[N+](=O)[O-] | inactive: -0.19%
CP(=O)(Nc1ccc(SC(F)(F)F)cc1)Oc1ccc(F)cc1 (stereo unspecified) | inactive: 2.28%
CCOP(C)(=S)SCC(=O)NC(C)(CC)C(=O)O (stereo unspecified) | inactive: 7.54%
CP(=O)(Nc1ccc2c(c1)OCCO2)Oc1ccccc1 (stereo unspecified) | inactive: 5.47%
Cc1ccccc1NP(C)(=O)Nc1ccccc1C | inactive: -5.25%
COc1ccc(OP(C)(=O)Nc2cccc(Br)c2)cc1 (stereo unspecified) | inactive: -15.1%
COc1ccc(NP(C)(=O)Oc2ccccc2OC)cc1 (stereo unspecified) | inactive: 14.4%
CN(C)CCOC(=O)C(O)(c1ccccc1)C1CCCCC1 (stereo unspecified) | inactive: 5.05%
O=[N+]([O-])c1cc([N+](=O)[O-])c(NCC2CCS(=O)(=O)C2)c([N+](=O)[O-])c1 (stereo unspecified) | inactive: 5.37%
COc1ccc(OP(C)(=O)Nc2ccc(SC(F)(F)F)cc2)cc1 (stereo unspecified) | inactive: 10.5%
CCOC(=O)c1ccc(NP(C)(=O)Oc2ccc(F)cc2)cc1 (stereo unspecified) | inactive: -1.53%
CCN(CC)CCCOC(=O)C(O)(c1ccccc1)C1CCCCC1 (stereo unspecified) | inactive: 12.8%
CCCCCOc1ccc(NP(C)(=O)Oc2ccc(Cl)cc2Cl)cc1 (stereo unspecified) | inactive: 0.04%
O=[N+]([O-])c1cc([N+](=O)[O-])c(OC2CCCCC2O)c([N+](=O)[O-])c1 (stereo unspecified) | inactive: -2.75%
CP(=O)(Nc1ccccc1)Oc1ccc(F)cc1 (stereo unspecified) | inactive: 6.16%
CC(C)c1ccc(OP(C)(=O)Nc2ccc(SC(F)(F)F)cc2)cc1 (stereo unspecified) | inactive: -8.1%
CP(=O)(Nc1ccccc1F)Oc1ccccc1 (stereo unspecified) | inactive: -4.99%
O=C(OCCN1CCN(CCOCc2ccccc2)CC1)C(O)(c1ccccc1)c1ccccc1 | inactive: 4.43%
O=C(OC1CN2CCC1CC2)c1ccc([N+](=O)[O-])cc1 (stereo unspecified) | inactive: 8.77%

SMILES | activation
COc1ccc2c(c1O)-c1c(O)c(OC)cc3c1[C@H](C2)[N+](C)(C)CC3.O=[N+]([O-])c1cc([N+](=O)[O-])c([O-])c([N+](=O)[O-])c1[O-] | inactive: -13.9%
COc1ccccc1OP(C)(=O)Nc1cccc(Br)c1 (stereo unspecified) | inactive: 3.46%
Cc1cc(C)cc(OP(C)(=O)Nc2ccc(C)cc2C)c1 (stereo unspecified) | inactive: 5.19%
CCOC(=O)c1ccc(NP(C)(=O)Oc2cc(C)cc(C)c2)cc1 (stereo unspecified) | inactive: -1.69%
Cc1cc(C)cc(OP(C)(=O)Nc2ccccn2)c1 (stereo unspecified) | inactive: 3.05%
CP(=O)(Nc1cccc(Br)c1)Oc1ccccc1 (stereo unspecified) | inactive: 3.79%
Cc1ccc(C)c(NP(C)(=O)Oc2ccccc2)c1 (stereo unspecified) | inactive: 8.57%
O=C(O)c1cccc(Nc2c([N+](=O)[O-])cc([N+](=O)[O-])cc2[N+](=O)[O-])c1 | inactive: -8.68%
CC1=NCCc2c1[nH]c1ccccc21.O=[N+]([O-])c1cc([N+](=O)[O-])c(O)c([N+](=O)[O-])c1 | inactive: 10.1%
CC1=C2N=C(C=C3N=C(C(C)=C4[N-][C@@](C)([C@@H]5N=C1[C@](C)(CCC(=O)NC[C@@H](C)OP(=O)([O-])O[C@H]1[C@@H](O)[C@@H](n6cnc7cc(C)c(C)cc76)O[C@@H]1CO)[C@H]5CC(N)=O)[C@@](C)(CC(N)=O)[C@@H]4CCC(N)=O)[C@@](C)(CC(N)=O)[C@@H]3CCC(N)=O)C(C)(C)[C@@H]2CCC(N)=O.[C-]#N.[Co+3] | inactive: 13.6%
O=[N+]([O-])c1cc([N+](=O)[O-])c(Nc2nnnn2CCO)c([N+](=O)[O-])c1 | inactive: -11%
CCOC(=O)C(CC)C1=NC(C)(C)Cc2ccccc21.O=[N+]([O-])c1cc([N+](=O)[O-])c(O)c([N+](=O)[O-])c1 (stereo unspecified) | inactive: -3.11%
CN1CCCCC1COC(=O)C1(O)c2ccccc2CCc2ccccc21 (stereo unspecified) | inactive: -3.71%
COc1ccccc1OP(C)(=O)Nc1c(C)cccc1C (stereo unspecified) | inactive: 9.27%
CCCOc1ccc(NP(C)(=O)Oc2ccc(Cl)cc2)cc1 (stereo unspecified) | inactive: -3.55%
CP(=O)(Nc1ccc(SC(F)(F)F)cc1)Oc1ccccc1 (stereo unspecified) | inactive: 2.79%
O=[N+]([O-])c1cc([N+](=O)[O-])c(-n2nnc3ccccc32)c([N+](=O)[O-])c1 | inactive: -13.9%
O=[N+]([O-])c1cc([N+](=O)[O-])c(-c2cnn(-c3ccccc3)c2)c([N+](=O)[O-])c1 | inactive: 3.77%
Cc1nc2ccc3ccccc3c2s1.O=[N+]([O-])c1cc([N+](=O)[O-])c(O)c([N+](=O)[O-])c1 | inactive: -17.7%
CP(=O)(Nc1ccc(SC(F)(F)F)cc1)Oc1ccc(Cl)cc1 (stereo unspecified) | inactive: 9.07%
Cc1cccc(C)c1OP(C)(=O)Nc1ccc(SC(F)(F)F)cc1 (stereo unspecified) | inactive: -6.62%
CP(=O)(Oc1ccccc1)OC(c1ccccc1)C(F)(F)F (stereo unspecified) | inactive: 5.88%

SMILES | activation
CP(=O)(NC(=O)Nc1ccccc1)Oc1ccccc1 (stereo unspecified) | inactive: -3.65%
CCc1ccc(OP(C)(=O)N2CCN(c3ccc([N+](=O)[O-])cc3)CC2)cc1 (stereo unspecified) | inactive: -7.9%
Cc1cc(C)cc(OP(C)(=O)Nc2ccc(SC(F)(F)F)cc2)c1 (stereo unspecified) | inactive: -8.46%
CCOP(C)(=S)SCC(=O)NC(C)C(=O)O (stereo unspecified) | inactive: 7.64%
O=[N+]([O-])c1cc([N+](=O)[O-])c(O)c([N+](=O)[O-])c1.c1ccc(Oc2ccncc2)cc1 | inactive: -1.58%
CCOC(=O)c1ccc(NP(C)(=O)Oc2ccc(OC)cc2)cc1 (stereo unspecified) | inactive: -3.05%
CP(=O)(Nc1ccccn1)Oc1ccc(Cl)cc1 (stereo unspecified) | inactive: -0.81%
CP(=S)(Nn1cnnc1)Oc1ccccc1 (stereo unspecified) | inactive: -30.7%
CP(=O)(Nc1ccccc1Br)Oc1ccccc1 (stereo unspecified) | inactive: 3.26%
O=[N+]([O-])c1cc([N+](=O)[O-])c(Nc2cccnc2)c([N+](=O)[O-])c1 | inactive: -1%
CC(C)(C)c1ccc(OP(C)(=O)Nc2ccc(SC(F)(F)F)cc2)cc1 (stereo unspecified) | inactive: 0.2%
Cc1cccc(C)c1OP(C)(N)=O (stereo unspecified) | inactive: -1.66%
O=[N+]([O-])c1ccc2c(c1)C=Nc1ccccc1O2 | inactive: -2.03%
CCOC(=O)c1ccc(NP(C)(=O)Oc2ccccc2)cc1 (stereo unspecified) | inactive: 5.76%
COc1ccccc1OP(C)(=O)Nc1ccc(C)cc1 (stereo unspecified) | inactive: 10.9%
Cc1ccc(NP(C)(=O)Oc2ccccc2)c(C)c1 (stereo unspecified) | inactive: 0.17%
COc1ccccc1OP(C)(=O)Nc1cc(Cl)ccc1C (stereo unspecified) | inactive: 7.48%
COc1ccc(OP(C)(=O)Nc2cccc(F)c2)cc1 (stereo unspecified) | inactive: 10.7%
Cc1cc(C)cc(OP(C)(N)=O)c1 (stereo unspecified) | inactive: -0.39%
CCN(CC)CCCOC(=O)C(O)(c1ccccc1)c1ccccc1 | inactive: 2.43%
